Permeability data for macrocyclic peptides

Values of Townsend et al. 2020, doi:10.26434/chemrxiv.13335941.v1, as listed in CycPeptMPDB.

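Conditions beyond the assay type are not listed; see the original paper. Other peptides of the study may be missing here. Peptides that the database sets to -10, its floor, are left out.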

PAMPA measures passive passage through an artificial lipid membrane.
Permeability is given as log10 of P in cm/s; higher (less negative) is more permeable.

| PAMPA (log10 cm/s) | compound |
|---|---|
| -4.80 | CCCN1CC(=O)N(C)[C@H](CC(C)C)C(=O)N(C)[C@H](CC(C)C)C(=O)N2CCC[C@H]2C(=O)N[C@H](CC(C)C)C(=O)N[C@@H](Cc2ccccc2)C1=O |
| -5.26 | CCCN1CC(=O)N[C@H](CC(C)C)C(=O)N(C)[C@H](CC(C)C)C(=O)N2CCC[C@@H]2C(=O)N(C)[C@H](CC(C)C)C(=O)N[C@@H](Cc2ccccc2)C(=O)N2CCC[C@@H]2C1=O |
| -7.08 | CC(C)C[C@H]1NC(=O)[C@H](C)NC(=O)[C@@H]2CCCN2C(=O)[C@H](Cc2ccccc2)NC(=O)[C@@H](CC(C)C)NC(=O)[C@@H]2CCCN2C(=O)[C@@H](CC(C)C)NC1=O |
| -6.04 | CC(C)C[C@@H]1C(=O)N[C@@H](Cc2ccccc2)CC(=O)N2CCC[C@@H]2C(=O)N[C@H](CC(C)C)C(=O)N[C@@H](Cc2ccccc2)C(=O)N2CCC[C@H]2C(=O)N(C)[C@H](C)C(=O)N1C |
| -5.19 | CC(C)C[C@@H]1C(=O)N[C@@H](Cc2ccccc2)C(=O)N(C)[C@@H](C)C(=O)N(C)[C@H](CC(C)C)C(=O)N[C@@H](Cc2ccccc2)CC(=O)N2CCC[C@@H]2C(=O)N1C |
| -5.69 | CCCN1CC(=O)N(Cc2ccccc2)CC(=O)N(C)[C@@H](CC(C)C)C(=O)N2CCC[C@H]2C(=O)N[C@@H](CC(C)C)C(=O)N[C@@H](Cc2ccccc2)C(=O)N2CCC[C@H]2C1=O |
| -5.98 | CC(C)C[C@@H]1NC(=O)[C@@H](C)N(C)C(=O)[C@@H]2CCCN2C(=O)[C@H](Cc2ccccc2)NC(=O)[C@H](CC(C)C)N(C)C(=O)[C@@H]2CCCN2C(=O)[C@H](CC(C)C)NC1=O |
| -5.57 | CCCN1CC(=O)N(C)[C@H](CC(C)C)C(=O)N(C)[C@H](CC(C)C)C(=O)N2CCC[C@@H]2C(=O)N[C@@H](CC(C)C)C(=O)N[C@@H](Cc2ccccc2)C(=O)N2CCC[C@H]2C1=O |
| -5.48 | CC(C)C[C@@H]1C(=O)N(C)[C@@H](CC(C)C)C(=O)N2CCC[C@@H]2C(=O)N(C)[C@H](CC(C)C)C(=O)N[C@@H](Cc2ccccc2)C(=O)N2CCC[C@H]2C(=O)N[C@@H](Cc2ccccc2)CC(=O)N1C |
| -6.18 | CC(C)C[C@@H]1NC(=O)[C@@H](CC(C)C)NC(=O)[C@H](C)NC(=O)[C@@H]2CCCN2C(=O)[C@H](Cc2ccccc2)NC(=O)[C@@H](CC(C)C)NC(=O)[C@@H]2CCCN2C1=O |
| -6.69 | CC(C)C[C@@H]1NC(=O)[C@@H](CC(C)C)NC(=O)[C@@H](C)NC(=O)[C@@H]2CCCN2C(=O)[C@H](Cc2ccccc2)NC(=O)[C@@H](CC(C)C)NC(=O)[C@@H]2CCCN2C1=O |
| -5.91 | CC(C)C[C@@H]1NC(=O)[C@H]2CCCN2C(=O)CN(Cc2ccccc2)C(=O)[C@H](CC(C)C)N(C)C(=O)C[C@H](Cc2ccccc2)NC(=O)[C@H]2CCCN2C(=O)[C@H](Cc2ccccc2)NC1=O |
| -6.37 | CC(C)C[C@@H]1NC(=O)[C@H]2CCCN2C(=O)[C@H](CC(C)C)N(C)C(=O)[C@@H](CC(C)C)NC(=O)[C@@H](C)N(C)C(=O)[C@H]2CCCN2C(=O)[C@H](Cc2ccccc2)NC1=O |
| -5.32 | CC(C)C[C@@H]1NC(=O)[C@@H](C)N(C)C(=O)[C@@H]2CCCN2C(=O)[C@H](Cc2ccccc2)NC(=O)[C@H](CC(C)C)N(C)C(=O)[C@@H]2CCCN2C(=O)[C@@H](CC(C)C)NC1=O |
| -5.10 | CCCN1CC(=O)N(C)[C@@H](CC(C)C)C(=O)N(C)[C@H](CC(C)C)C(=O)N2CCC[C@@H]2C(=O)N(Cc2ccccc2)CC(=O)N[C@@H](Cc2ccccc2)C1=O |
| -5.23 | CC(C)C[C@@H]1C(=O)N(C)[C@H](CC(C)C)C(=O)N2CCC[C@H]2C(=O)N(C)[C@@H](CC(C)C)C(=O)N[C@@H](Cc2ccccc2)C(=O)N2CCC[C@@H]2C(=O)N[C@@H](Cc2ccccc2)CC(=O)N1C |
| -6.26 | CC(C)C[C@@H]1C(=O)N[C@@H](Cc2ccccc2)C(=O)N[C@@H](C)C(=O)N[C@H](CC(C)C)C(=O)N(Cc2ccccc2)CC(=O)N2CCC[C@@H]2C(=O)N1C |

The 3 highest values of PAMPA among the entries above:

| compound | PAMPA (log10 cm/s) |
|---|---|
| CCCN1CC(=O)N(C)[C@H](CC(C)C)C(=O)N(C)[C@H](CC(C)C)C(=O)N2CCC[C@H]2C(=O)N[C@H](CC(C)C)C(=O)N[C@@H](Cc2ccccc2)C1=O | -4.80 |
| CCCN1CC(=O)N(C)[C@@H](CC(C)C)C(=O)N(C)[C@H](CC(C)C)C(=O)N2CCC[C@@H]2C(=O)N(Cc2ccccc2)CC(=O)N[C@@H](Cc2ccccc2)C1=O | -5.10 |
| CC(C)C[C@@H]1C(=O)N[C@@H](Cc2ccccc2)C(=O)N(C)[C@@H](C)C(=O)N(C)[C@H](CC(C)C)C(=O)N[C@@H](Cc2ccccc2)CC(=O)N2CCC[C@@H]2C(=O)N1C | -5.19 |